Measured values: patent US20250302927A1, “MODIFIED FACTOR XA POLYPEPTIDES AND METHODS OF USE” (The United States of America, as represented by the …, priority 2022, published 2025)

Columns and labels:
Male CD-1 mice = test: Tail clip bleeding model; format: in vivo; conditions: for Bleeding profile (bleeding graphs): apixaban 4 mg/kg, FIG. 4D
Experimental: Tail clip bleeding model: Animal experiments were performed at the U.S. FDA/CBER Division of Veterinary Services in accordance with the protocol approved by the institutional animal care and use committee (IACUC). Male CD-1 mice (Charles River Laboratories, Kingston, NY, USA) were 5-8 weeks old weighing 28-34 grams. […] After 5 minutes, 3 mm of tail were cut, after which the tail was immersed in a tube with predefined volume of 0.9% NaCl at 37° C. and allowed to bleed for 30 minutes under close observation. Blood loss was determined by measuring hemoglobin content and expressed as μl/mouse.
The design of the in vivo study in mice is depicted in FIG. 3B. […] The tails of the mice were clipped, and bleeding monitored by measuring bleeding time (FIG. 3C) and blood loss (FIG. 3D). […] All bleeding episodes were plotted using the length and number of episodes of bleeds for each individual mouse (FIG. 3E) to determine the bleeding profiles.
Additional experiments were performed in the mouse model, as above, but with the inclusion of andexanet alfa for comparison. The experimental strategy is depicted in FIG. 4A.

[1] = Inhibition of FXa variant chromogenic substrate cleavage by apixaban (IC50); format: biochemical, human; conditions: for IC50: apixaban, fixed amounts of FXa variants, increasing apixaban concentrations
Experimental: Chromogenic FXa activity assay: The FXa activity assay based on CS11(65)a chromogenic substrate (Biophen) was performed as described below. […] For each sample, substrate cleavage was calculated by taking the average rate over the time frame between 1 and 2 minutes.
Activity and inhibitory concentration were determined for a larger series of variants (FIGS. 2A and 2B). Activities for all variants were determined using the rate of chromogenic substrate cleavage in pure buffer system at different FXa concentrations. Variants were assigned into five brackets (FIG. 2A). […] Taking a balance between activity and IC50 values (Table 2), six potentially beneficial variants were identified. To be assigned as potentially beneficial the combined scores were ***** but the individual score could not be less than **.

[2] = system: tissue factor (TF)-triggered pooled normal human plasma; test: Thrombin generation assay in plasma spiked with apixaban; format: biochemical; conditions: for Km: activity in the presence of a fixed amount (1 μM) of apixaban, read-out: apparent Km
Experimental: Thrombin generation assay: The procoagulant activity of FXa variants was evaluated by a previously described thrombin generation assay in tissue factor (TF)-triggered pooled normal human plasma (Affinity Biologicals Inc, Ontario, Canada). […] Fluorescence (product of thrombin substrate consumption) was recorded in a kinetic mode at 37° C. using a Tecan Infinite F500 every 45 seconds for a period of 1.7 hours. In-house software was used to calculate calibrate thrombin generation assay (using an internal thrombin calibrator CAT® from Stago, Parsippany, NJ, USA) and calculate thrombin peak height parameter.

[3] = target: T1, Tissue factor pathway inhibitor (TFPI) (Homo sapiens, UniProt P10646); test: ACTICHROME TFPI assay; format: biochemical; conditions: 4 nM variants vs 100 nM andexanet alfa, FIG. 5
T1 construct: BioMedica Diagnostics (assay kit)
T1 sequence (P10646 29-304): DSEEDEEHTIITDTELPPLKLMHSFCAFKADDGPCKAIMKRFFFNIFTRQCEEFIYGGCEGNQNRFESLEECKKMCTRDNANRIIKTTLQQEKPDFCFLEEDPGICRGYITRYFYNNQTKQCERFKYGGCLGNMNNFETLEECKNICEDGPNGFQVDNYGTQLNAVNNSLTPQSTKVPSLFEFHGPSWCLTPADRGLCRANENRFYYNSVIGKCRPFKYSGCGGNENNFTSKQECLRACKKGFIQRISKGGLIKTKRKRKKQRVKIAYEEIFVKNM
Experimental: Tissue factor pathway inhibitor (TFPI) plays a very important role in regulation of the procoagulant activity of tissue factor (TF). […] TFPI activity was determined using ACTICHROME® TFPI assay (BioMedica Diagnostics) according to manufacturer's protocol. […] Thus, these agents are believed to have minimal risk of thrombogenesis.

[4] = 1 mg/kg infused 5 min after apixaban, FIG. 3C
[5] = apixaban dose of 4 mg/kg, FIG. 4B
[6] = apixaban dose of 4 mg/kg, FIG. 4C

FX: vitamin K-dependent coagulation factor X of the blood coagulation cascade [reference compound]
Bleeding time (Male CD-1 mice; [4]): did not significantly reduce the bleeding time

Variant 63: modified Factor Xa polypeptide, G450A, S1 subsite, SEQ ID NO: 6
IC50 [1]: 51 to 150 nM

Variant 66: modified Factor Xa polypeptide, substitution C415A
IC50 [1]: < 5 nM

Variant 68: modified Factor Xa polypeptide, C415A + C443A, S1 subsite, SEQ ID NO: 10
IC50 [1]: 151 to 250 nM

wild type FXa: wild type (unmodified) Factor Xa, amino acids 41-488 of SEQ ID NO: 1 [reference compound]
Km [2]: 0.0031 ± 0.0004 µM | Bleeding time (Male CD-1 mice; [4]): did not significantly reduce the bleeding time | Bleeding profile (bleeding graphs) (Male CD-1 mice): mostly uninterrupted flow of blood | Bleeding time (Male CD-1 mice; [5]): no significant effect | Blood loss (Male CD-1 mice; [6]): no significant effect

B1: FXa variant 70 (amino acids 312-317 replaced with STYVPG) (protein)
chain: GPANSFLEEMKKGHLERECMEETCSYEEAREVFEDSDKTNEFWNKYKDGDQCETSPCQNQGKCKDGLGEYTCTCLEGFEGKNCELFTRKLCSLDNGDCDQFCHEEQNSVVCSCARGYTLADNGKACIPTGPYPCGKQTLERRKRSVAQATSSSGEAPDSITWKPYDAADLDPTENPFDLLDFNQTQPERGDNNLTRIVGGQECKDGECPWQALLINEENEGFCGGTILSEFYILTAAHCLYQAKRFKVRVGDRNTEQEEGGEAVHEVEVVIKHSTYVPGTYDFDIAVLRLKTPITFRMNVAPACLPERDWAESTLMTQKTGIVSGFGRTHEKGRQSTRLKMLEVPYVDRNSCKLSSSFIITQNMFCAGYDTKQEDACQGDSGGPHVTRFKDTYFVTGIVSWGEGCARKGKYGIYTKVTAFLKWIDRSMKTRGLPKAKSHAPEVITSSPLK
Km [2]: 0.219 ± 0.014 µM | potency compared with wild type FXa ([2]; thrombin generation assay as worded): less potent than wild type FXa | fold higher IC50 values for apixaban compared to the wild-type FXa ([1]; FIG. 1G): ~70 fold | IC50 [1]: 151 to 250 nM | Bleeding time (Male CD-1 mice; [4]): significantly reduced bleeding time | Blood loss (Male CD-1 mice; 1 mg/kg infused 5 min after apixaban, FIG. 3D): successfully reversed the anticoagulant effect of apixaban | Bleeding profile (bleeding graphs) (Male CD-1 mice): multiple breaks in blood flowing from the tail cut | Bleeding time (Male CD-1 mice; [5]): significant decrease | Blood loss (Male CD-1 mice; [6]): significant decrease | response to TFPI (TFPI activity) [3]: much smaller response to TPFI compared to andexanet alfa

B2: Variant 69: modified Factor Xa polypeptide, amino acids 312-317 replaced with KNYQPD, S4 subsite, SEQ ID NO: 12 (protein)
chain: GPANSFLEEMKKGHLERECMEETCSYEEAREVFEDSDKTNEFWNKYKDGDQCETSPCQNQGKCKDGLGEYTCTCLEGFEGKNCELFTRKLCSLDNGDCDQFCHEEQNSVVCSCARGYTLADNGKACIPTGPYPCGKQTLERRKRSVAQATSSSGEAPDSITWKPYDAADLDPTENPFDLLDFNQTQPERGDNNLTRIVGGQECKDGECPWQALLINEENEGFCGGTILSEFYILTAAHCLYQAKRFKVRVGDRNTEQEEGGEAVHEVEVVIKHKNYQPDTYDFDIAVLRLKTPITFRMNVAPACLPERDWAESTLMTQKTGIVSGFGRTHEKGRQSTRLKMLEVPYVDRNSCKLSSSFIITQNMFCAGYDTKQEDACQGDSGGPHVTRFKDTYFVTGIVSWGEGCARKGKYGIYTKVTAFLKWIDRSMKTRGLPKAKSHAPEVITSSPLK
IC50 [1]: 5 to 50 nM
